The values that follow come from patent EP4831171A1, “FUSED RING COMPOUND, PHARMACEUTICAL COMPOSITION COMPRISING SAME, AND USE THEREOF” (dated 2026).

Amino acid sequences for entries named in this document (tags omitted).
UniProt Q14191, whole entry: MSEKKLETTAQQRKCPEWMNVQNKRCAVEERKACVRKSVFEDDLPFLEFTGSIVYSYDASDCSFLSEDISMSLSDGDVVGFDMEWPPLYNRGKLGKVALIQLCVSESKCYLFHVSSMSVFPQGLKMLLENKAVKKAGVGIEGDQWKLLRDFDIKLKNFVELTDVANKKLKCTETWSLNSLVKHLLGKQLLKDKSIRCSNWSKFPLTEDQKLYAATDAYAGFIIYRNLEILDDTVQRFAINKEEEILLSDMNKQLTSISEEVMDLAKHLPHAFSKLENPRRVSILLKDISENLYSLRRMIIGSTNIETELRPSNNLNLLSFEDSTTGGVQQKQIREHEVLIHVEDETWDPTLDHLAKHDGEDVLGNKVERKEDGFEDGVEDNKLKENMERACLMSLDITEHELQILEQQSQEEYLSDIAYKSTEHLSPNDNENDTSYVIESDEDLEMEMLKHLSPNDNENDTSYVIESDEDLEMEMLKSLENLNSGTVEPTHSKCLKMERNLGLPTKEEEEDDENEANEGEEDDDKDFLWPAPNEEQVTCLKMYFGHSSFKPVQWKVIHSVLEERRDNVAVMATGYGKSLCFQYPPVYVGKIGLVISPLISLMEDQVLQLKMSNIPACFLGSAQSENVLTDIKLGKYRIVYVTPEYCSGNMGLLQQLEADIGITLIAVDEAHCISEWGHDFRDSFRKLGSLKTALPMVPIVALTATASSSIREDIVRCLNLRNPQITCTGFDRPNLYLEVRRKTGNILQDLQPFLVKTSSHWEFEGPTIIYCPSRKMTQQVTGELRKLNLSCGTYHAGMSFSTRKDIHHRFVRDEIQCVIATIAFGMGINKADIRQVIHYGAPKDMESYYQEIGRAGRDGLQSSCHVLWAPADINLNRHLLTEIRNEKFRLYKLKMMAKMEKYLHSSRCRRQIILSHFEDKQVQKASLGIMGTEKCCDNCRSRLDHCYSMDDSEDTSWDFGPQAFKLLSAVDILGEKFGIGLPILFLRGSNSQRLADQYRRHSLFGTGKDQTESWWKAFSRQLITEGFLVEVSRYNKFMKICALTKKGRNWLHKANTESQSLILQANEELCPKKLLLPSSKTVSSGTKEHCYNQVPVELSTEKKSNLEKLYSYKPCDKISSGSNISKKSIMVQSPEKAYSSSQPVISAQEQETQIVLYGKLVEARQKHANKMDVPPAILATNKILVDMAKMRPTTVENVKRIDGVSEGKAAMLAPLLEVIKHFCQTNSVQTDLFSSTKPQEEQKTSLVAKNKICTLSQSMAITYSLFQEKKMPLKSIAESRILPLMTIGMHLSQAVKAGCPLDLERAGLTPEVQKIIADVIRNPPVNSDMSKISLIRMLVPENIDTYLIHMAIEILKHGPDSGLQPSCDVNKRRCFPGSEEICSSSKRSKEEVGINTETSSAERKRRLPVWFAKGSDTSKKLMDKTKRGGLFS

The structures appear in SMILES notation. pIC50: −log10 of the molar value.

In assay [1] the target is WRN helicase (Homo sapiens, UniProt Q14191). In words: ATPase activity assay of WRN helicase (ADP-Glo). Particulars: read-out: WRN ATPase activity inhibition IC50; WRN 10 nM, ATP 300 µM, FLAP26 0.4 nM; 3 h preincubation at 37 °C, 30 min reaction at room temperature. The procedure:
The ADP content generated by ATP hydrolysis catalyzed by WRN helicase was measured using a commercial ADP-Glo assay kit (Promega, #V9102), and the measured ADP level could reflect the ATPase activity of WRN helicase.
The 45 nt oligonucleotide single-stranded DNA FLAP26 ([…]) was synthesized by Azenta. Reference was made, for example, to Brosh RM Jr et al., J Biol Chem, 2002 Jun;277(26):23236-45. A reaction buffer (30 mM Tris pH 7.5, 2 mM MgCl2, 0.02% BSA, 50 mM NaCl, 0.1% pluronic F127) was prepared. […]
5 µL of the above mixture was transferred to a 384-well white plate, and 5 µL ofADP-Glo reagent was added. […] The mixture was mixed well by shaking and incubated at room temperature in the dark for 30 min, and then chemiluminescence readings were recorded. The inhibition rate of the compound on the enzyme activity was calculated, and the inhibition rate value and the logarithm value of the compound concentration were fitted using non-linear regression (dose response-variable slope) to obtain the IC50 value of the test compound. […]
A general note: ADP-Glo turns the ADP formed in a reaction into a luminescent signal.

The test system of assay [2] is SW48 cell line. In words: Inhibitory activity assay for tumor cell proliferation (CellCounting-Lite), SW48. Particulars: read-out: SW48 Proliferation inhibition IC50; SW48 cells with microsatellite instability; treatment for 4 days; highest concentration 10 µM. Here is the method:
(§1) After treatment of SW48 cell lines with microsatellite instability and the control DLD1-WRN-KO cell line using the test compounds for 4 days, ATP levels were measured using a CellCounting-Lite kit from Vazyme to evaluate inhibitory effects of the test compounds on the growth of tumor cell lines.
(§2) In the present application, the SW48 cell line and the DLD1-WRN-KO cell line were seeded into a 96-well cell culture plate at an appropriate cell density. After 24 h, the cells were treated with the test compounds at the highest concentration of 10 µM, followed by 1:3 serial dilution to obtain 9 concentration gradients, and a DMSO treatment group was set up separately. The cells were cultured in an incubator at 37 °C with 5% CO2 for 4 days. […] Chemiluminescence values were read using a Thermo Varioskan LUX-3020 multifunctional microplate reader for conversion to proliferation indices to calculate the inhibition rate of the compound on tumor cell proliferation, and the inhibition rate value and the logarithm value of the compound concentration were fitted using non-linear regression (dose response-variable slope) to obtain the IC50 value of the compound. […]

The subject of assay [3] is DLD1-WRN-KO cell line. In words: Inhibitory activity assay for tumor cell proliferation (CellCounting-Lite), DLD1-WRN-KO control. Particulars: read-out: DLD1-WRN-KO Proliferation inhibition IC50; WRN knockout DLD1 cells (off-target control); treatment for 4 days; highest concentration 10 µM. Here is the method:
A DLD1-WRN-KO cell line was constructed by stably knocking out the WRN gene in DLD1 cells using CRISPR/Cas9 technology, and the constructed cell line was used to evaluate potential off-target effects of the compounds.
as §1, §2

`CCc1c(N2CCN(C(=O)c3ncnc(C)c3O)CC2)c(=O)c2nc3ccccc3nc2n1CC(=O)Nc1ccc(C(F)(F)F)cc1Cl`: the pIC50 in assay [1] was 8.05; in assay [2] it was 7.85; in assay [3], less than 5.00.
